{"source": "patent US20180208920A1", "about": "“MOLECULAR MACHINES” (Commonwealth Scientific and Industrial Research Organisation, priority 2015, published 2018)", "key": {"CaNOX::AaE2": {"system": "CaNOX::AaE2", "conditions": "after 5 min incubation with inhibitor on ice"}, "[1]": {"system": "EcG3PD::CaNOX::AaE2 (TriF2)", "conditions": "after 5 min incubation with inhibitor on ice"}}, "data": [{"compound": "O=C(CBr)C(F)(F)F", "values": [{"measurement": "residual esterase activity", "setting": "CaNOX::AaE2", "result": "greatly decreased"}, {"measurement": "residual esterase activity", "setting": "[1]", "result": "greatly decreased"}]}]}
